Data taken from paper PMC6893898, “Receptor Interaction Profiles of 4-Alkoxy-Substituted 2,5-Dimethoxyphenethylamines and Related Amphetamines” (Frontiers in Pharmacology, 2019).

By UniProt entry, the sequences of proteins in these tests, tags left out.
UniProt P28223, whole entry: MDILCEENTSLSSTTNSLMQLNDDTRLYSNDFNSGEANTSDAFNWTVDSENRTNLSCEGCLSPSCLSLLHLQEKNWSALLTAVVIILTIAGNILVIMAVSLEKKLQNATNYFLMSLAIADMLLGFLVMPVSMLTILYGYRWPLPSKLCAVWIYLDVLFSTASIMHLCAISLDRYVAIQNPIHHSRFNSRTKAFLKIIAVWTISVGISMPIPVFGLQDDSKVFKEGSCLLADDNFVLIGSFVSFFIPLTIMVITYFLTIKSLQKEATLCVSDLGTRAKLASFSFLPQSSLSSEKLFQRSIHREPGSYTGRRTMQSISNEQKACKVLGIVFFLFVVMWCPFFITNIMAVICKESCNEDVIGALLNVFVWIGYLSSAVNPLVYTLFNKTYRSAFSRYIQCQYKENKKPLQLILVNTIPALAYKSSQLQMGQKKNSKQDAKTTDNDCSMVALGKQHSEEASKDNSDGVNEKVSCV
UniProt Q923Y9, whole entry: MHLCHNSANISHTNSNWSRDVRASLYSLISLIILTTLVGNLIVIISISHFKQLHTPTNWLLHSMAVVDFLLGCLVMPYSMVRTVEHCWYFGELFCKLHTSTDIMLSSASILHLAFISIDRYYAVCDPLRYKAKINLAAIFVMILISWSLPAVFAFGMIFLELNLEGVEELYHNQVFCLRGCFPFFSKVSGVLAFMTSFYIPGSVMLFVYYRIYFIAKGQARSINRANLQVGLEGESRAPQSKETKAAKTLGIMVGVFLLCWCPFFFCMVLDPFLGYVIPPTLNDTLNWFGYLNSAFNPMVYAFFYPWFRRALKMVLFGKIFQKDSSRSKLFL
UniProt Q923Y8, whole entry: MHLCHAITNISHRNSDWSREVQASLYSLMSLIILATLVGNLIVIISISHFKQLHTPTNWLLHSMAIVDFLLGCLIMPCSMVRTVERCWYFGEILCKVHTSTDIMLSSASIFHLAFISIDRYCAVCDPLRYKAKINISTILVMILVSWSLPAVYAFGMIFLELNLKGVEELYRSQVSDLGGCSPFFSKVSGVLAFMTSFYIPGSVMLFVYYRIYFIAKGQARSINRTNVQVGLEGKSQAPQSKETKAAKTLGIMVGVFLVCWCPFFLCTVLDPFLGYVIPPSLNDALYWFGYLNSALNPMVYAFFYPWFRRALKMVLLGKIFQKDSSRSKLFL

Tests used:
5-HT2A receptor = 5-HT2A receptor (Homo sapiens, UniProt P28223); format: binding; design: expressed in transfected cells; host or cells: HEK 293 (membrane preparation)
rat TAAR1 = biological target: T1, rat TAAR1 (Rattus norvegicus, UniProt Q923Y9); experiment: Radioligand binding, rat TAAR1 ([3H]RO5166017); conditions: for Increase in TAAR1 binding affinity compared to 2C-O-21 (9): rat TAAR1 by context
T1 construct: expressed in transfected cells; host or cells: HEK 293 (membrane preparation)

mouse TAAR1 = biological target: T2, mouse TAAR1 (Mus musculus, UniProt Q923Y8); experiment: Radioligand binding, mouse TAAR1 ([3H]RO5166017)
T2 construct: expressed in transfected cells; host or cells: HEK 293 (membrane preparation)

Compound: C=C(C)COc1cc(OC)c(CCN)cc1OC [2C-O-3, 2,5-dimethoxy-4-methallyloxyphenethylamine]
- Increase in 5-HT2A binding affinity compared to 2C-O-2 (6) (5-HT2A receptor): 17 fold
- Increase in rat TAAR1 binding affinity compared to 2C-O-2 (6) (rat TAAR1): 3 fold
- Increase in mouse TAAR1 binding affinity compared to 2C-O-2 (6) (mouse TAAR1): 4 fold

Compound: C=CCOc1cc(OC)c(CCN)cc1OC [2C-O-16, 4-allyloxy-2,5-dimethoxyphenethylamine]
- Increase in 5-HT2A binding affinity compared to 2C-O-2 (6) (5-HT2A receptor): 5 fold
- Increase in rat TAAR1 binding affinity compared to 2C-O-2 (6) (rat TAAR1): ~2 fold
- Increase in mouse TAAR1 binding affinity compared to 2C-O-2 (6) (mouse TAAR1): 2 fold

Compound: COc1cc(OCC(F)F)c(OC)cc1CCN [2C-O-21.5, 4-(2,2-difluoroethoxy)-2,5-dimethoxyphenethylamine]
- Increase in 5-HT2A binding affinity compared to 2C-O-21 (9) (5-HT2A receptor): 2 fold
- Increase in TAAR1 binding affinity compared to 2C-O-21 (9) (rat TAAR1): 2 fold

Compound: COc1cc(OCC(F)(F)F)c(OC)cc1CCN [2C-O-22, 2,5-dimethoxy-4-(2,2,2-trifluoroethoxy)phenethylamine]
- Increase in 5-HT2A binding affinity compared to 2C-O-21 (9) (5-HT2A receptor): 4 fold
- Increase in TAAR1 binding affinity compared to 2C-O-21 (9) (rat TAAR1): 2 fold

Compound: COc1cc(OCc2ccccc2)c(OC)cc1CCN [2C-O-27, 4-benzyloxy-2,5-dimethoxyphenethylamine]
- Increase in rat TAAR1 binding affinity compared to 2C-O-2 (6) (rat TAAR1): 16 fold
- Increase in mouse TAAR1 binding affinity compared to 2C-O-2 (6) (mouse TAAR1): 6 fold

Compound: C=CCOc1cc(OC)c(CC(C)N)cc1OC (stereo not shown) [MALM, 4-allyloxy-2,5-dimethoxyamphetamine]
- Increase in 5-HT2A binding affinity compared to TMA-2 (19) (5-HT2A receptor): up to 9 fold

Compound: COc1cc(OCC(F)F)c(OC)cc1CC(C)N (stereo not shown) [MDFEM, 4-(2,2-difluoroethoxy)-2,5-dimethoxyamphetamine]
- Increase in 5-HT2A binding affinity compared to monofluorinated 15 (5-HT2A receptor): 2 fold

Compound: C=C(C)COc1cc(OC)c(CC(C)N)cc1OC (stereo not shown) [MMALM, 2,5-dimethoxy-4-methallyloxyamphetamine]
- Increase in 5-HT2A binding affinity compared to TMA-2 (19) (5-HT2A receptor): 21 fold

Compound: COc1cc(OCC(F)(F)F)c(OC)cc1CC(C)N (stereo not shown) [MTFEM, 2,5-dimethoxy-4-(2,2,2-trifluoroethoxy)amphetamine]
- Increase in 5-HT2A binding affinity compared to monofluorinated 15 (5-HT2A receptor): 4 fold
